Assay results taken from patent publication US20260193285A1, “GRAMINE-PLATINUM (IV) COMPLEX AS WELL AS PREPARATION METHOD THEREFOR AND ANTI-TUMOR USE THEREOF” (TIANJIN MEDICAL UNIVERSITY CANCER INSTITUTE & HOSPITAL, priority 2022, published 2026).

System: KPC tumor model
Assay: In vivo anti-tumor activity, pancreatic cancer KPC model
Conditions: Pt 3.0 mg/kg
Description: Firstly, a KPC tumor model was established using C57BL/6 female mice 4-5 weeks old. […] The drugs were formulated at a Pt concentration of 3.0 mg/kg, once every 3 days and five times in total, while the body weight and tumor volume of the mice were measured every 3 days. The mice were sacrificed and the organs (heart, liver, spleen, lung, kidney) and tumors thereof were excised. The tumors were used for flow cytometry to determine the content of immune cells.

## O=C1[O][Pt]2([NH][C@@H]3CCCC[C@H]3[NH]2)[O]C1=O [OXP, oxaliplatin]
  body weight change of mice: decline all the time
